According to patent US11464864B2, “Drug-bound compound and use thereof” (priority 2018, dated 2022):

Legend:
[1] = mice C57BL/6, ip, 93.4 mg kg^−1 (HCl salt), 30 minutes after injection
[2] = guanidinium chloride salt

Substance	Tissue distribution (fluorescence in organ sections) [1]	Solubility in aqueous solutions [2]
1-O-[20-O—(N-succinyl-6-aminohexanoyl)camptothecin]-2,3,4,5-tetra-O—(N-{bis-[3-N′,N″-bis-(tert-butoxycarbonyl)-guanidino)-propyl]}-6-aminohexanoyl)-6-O-[6-(fluoresceinyl-5-thioureido)-hexanoyl]-D-sorbitol⋅8HCl [compound (10)]	observed mainly in the kidney, the lung, the spleen, and is also observed even in the brain	–
1-O-[20-O—(N-succinyl-6-aminohexanoyl)camptothecin]-2,3,4,5-tetra-O—(N-{bis-[3-(N′,N″-bis-(tert-butoxycarbonyl)-guanidino)-propyl]}-6-aminohexanoyl)-6-O-(6-aminohexanoyl)-D-sorbitol⋅9HCl [compound (9)]	–	high solubility in aqueous solutions
